# From patent publication US12503510B2, “Small shedding blocking agents” (BIOND BIOLOGICS LTD., priority 2019, dated 2025)
# System: human PBMCs
# Assay: CMV stimulation of PBMCs with ectopic recombinant human CD28 or CTLA-4, cytokine ELISA/multiplex
# Type: cell-based
# Conditions: CMV 0.5 μg/mL
substance,measurement,value
"soluble CTLA-4: recombinant human soluble CTLA-4, mimicking Abatacept",cytokine secretion profile compared with soluble CD28,over-all similar impact on the immune system in terms of cytokine secretion profiles
